ChEMBL document CHEMBL3817845, “Development of CNS multi-receptor ligands: Modification of known D2 pharmacophores” (Bioorg Med Chem, 2016)

The chains behind the UniProt entries cited, without tags or fusion partners.
UniProt P41595, whole entry: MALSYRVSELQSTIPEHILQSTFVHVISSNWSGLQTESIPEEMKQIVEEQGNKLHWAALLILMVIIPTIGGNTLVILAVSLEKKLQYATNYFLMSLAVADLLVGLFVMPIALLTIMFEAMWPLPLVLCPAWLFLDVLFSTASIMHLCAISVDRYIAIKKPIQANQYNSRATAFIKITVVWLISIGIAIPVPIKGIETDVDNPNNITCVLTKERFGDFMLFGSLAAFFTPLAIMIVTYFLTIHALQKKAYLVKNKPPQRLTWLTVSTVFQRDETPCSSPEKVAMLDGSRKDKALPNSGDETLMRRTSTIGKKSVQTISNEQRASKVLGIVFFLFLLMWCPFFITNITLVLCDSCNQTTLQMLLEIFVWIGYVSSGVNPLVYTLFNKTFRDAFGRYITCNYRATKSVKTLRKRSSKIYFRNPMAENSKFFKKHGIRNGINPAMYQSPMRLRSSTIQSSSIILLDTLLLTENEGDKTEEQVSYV
UniProt P34969, whole entry: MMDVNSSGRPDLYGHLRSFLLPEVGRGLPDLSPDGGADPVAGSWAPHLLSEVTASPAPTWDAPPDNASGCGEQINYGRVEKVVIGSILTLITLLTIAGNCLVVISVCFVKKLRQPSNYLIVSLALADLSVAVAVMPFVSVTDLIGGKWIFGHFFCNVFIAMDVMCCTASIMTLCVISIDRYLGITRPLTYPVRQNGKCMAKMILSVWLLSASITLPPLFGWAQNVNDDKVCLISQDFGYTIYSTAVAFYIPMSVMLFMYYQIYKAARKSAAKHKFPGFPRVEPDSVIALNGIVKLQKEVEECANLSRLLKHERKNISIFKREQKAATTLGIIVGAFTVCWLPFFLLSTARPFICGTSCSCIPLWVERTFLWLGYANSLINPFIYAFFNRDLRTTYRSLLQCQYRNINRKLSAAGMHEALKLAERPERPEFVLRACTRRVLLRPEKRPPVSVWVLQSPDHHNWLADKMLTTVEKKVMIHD
UniProt P21917, whole entry: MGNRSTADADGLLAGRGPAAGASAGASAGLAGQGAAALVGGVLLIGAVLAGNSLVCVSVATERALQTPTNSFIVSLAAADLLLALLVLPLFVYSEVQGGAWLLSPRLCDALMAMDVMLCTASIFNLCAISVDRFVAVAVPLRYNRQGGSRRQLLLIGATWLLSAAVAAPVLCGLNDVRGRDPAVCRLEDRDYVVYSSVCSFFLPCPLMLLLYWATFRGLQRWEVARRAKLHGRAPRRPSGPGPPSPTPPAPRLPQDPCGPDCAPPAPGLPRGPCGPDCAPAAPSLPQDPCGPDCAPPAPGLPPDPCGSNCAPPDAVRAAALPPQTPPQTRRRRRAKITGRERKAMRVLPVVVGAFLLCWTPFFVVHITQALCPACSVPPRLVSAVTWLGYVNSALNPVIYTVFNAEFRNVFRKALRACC
UniProt P35462, whole entry: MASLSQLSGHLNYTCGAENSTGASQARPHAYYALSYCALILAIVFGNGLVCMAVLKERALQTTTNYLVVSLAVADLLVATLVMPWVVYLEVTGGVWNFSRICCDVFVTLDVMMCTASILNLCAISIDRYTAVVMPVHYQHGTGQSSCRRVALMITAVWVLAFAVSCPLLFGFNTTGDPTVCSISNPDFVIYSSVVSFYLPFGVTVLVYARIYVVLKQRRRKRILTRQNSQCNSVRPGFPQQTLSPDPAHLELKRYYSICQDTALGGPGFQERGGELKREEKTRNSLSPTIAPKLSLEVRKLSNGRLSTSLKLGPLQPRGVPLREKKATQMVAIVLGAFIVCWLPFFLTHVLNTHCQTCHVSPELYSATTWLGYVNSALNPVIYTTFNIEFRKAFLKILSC
UniProt P14416, whole entry: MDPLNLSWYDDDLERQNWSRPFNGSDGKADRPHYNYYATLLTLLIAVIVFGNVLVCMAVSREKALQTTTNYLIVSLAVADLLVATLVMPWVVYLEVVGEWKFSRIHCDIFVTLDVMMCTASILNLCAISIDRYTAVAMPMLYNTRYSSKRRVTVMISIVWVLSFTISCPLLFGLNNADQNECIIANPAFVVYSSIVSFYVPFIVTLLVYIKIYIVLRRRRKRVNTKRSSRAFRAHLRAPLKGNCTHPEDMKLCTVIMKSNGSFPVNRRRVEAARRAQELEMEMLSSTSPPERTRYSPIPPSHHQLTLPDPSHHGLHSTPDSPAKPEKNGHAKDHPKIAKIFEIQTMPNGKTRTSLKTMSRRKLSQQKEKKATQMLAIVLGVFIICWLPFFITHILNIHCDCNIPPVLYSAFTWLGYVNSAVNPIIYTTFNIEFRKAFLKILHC

Legend:
[1] = biological target: 5-hydroxytryptamine receptor 2B (Homo sapiens, UniProt P41595); experiment: Displacement of [3H]LSD from human recombinant 5HT2B receptor incubated for […] by microbeta scintillation counting method
[2] = biological target: 5-hydroxytryptamine receptor 7 (Homo sapiens, UniProt P34969); experiment: Displacement of [3H]LSD from human recombinant 5HT7 receptor incubated for […] by microbeta scintillation counting method
D(4) dopamine receptor = D(4) dopamine receptor (Homo sapiens, UniProt P21917); experiment: Displacement of [3H]N-methylspiperone from human recombinant dopamine D4 receptor incubated for […] by microbeta scintillation counting method
D(3) dopamine receptor = D(3) dopamine receptor (Homo sapiens, UniProt P35462); experiment: Displacement of [3H]N-methylspiperone from human recombinant dopamine D3 receptor incubated for […] by microbeta scintillation counting method
D(2) dopamine receptor = D(2) dopamine receptor (Homo sapiens, UniProt P14416); experiment: Displacement of [3H]N-methylspiperone from human recombinant dopamine D2 receptor incubated for […] by microbeta scintillation counting method

## O=C(CCCCN1CCC2(CC1)C(=O)NCN2c1ccccc1)c1nc2ccccc2s1
[1]
  Ki: 1580 nM

## O=C1NCN(c2ccccc2)C12CCN(CCCCc1nc3cc(Cl)ccc3s1)CC2
[2]
  Ki: 1600 nM
D(4) dopamine receptor
  Ki: 1510 nM

## Cl.O=C(CCCCN1C2CCC1CC(O)(c1ccc(Cl)cc1)C2)c1nc2ccccc2s1 (stereo not drawn)
D(3) dopamine receptor; read-out: Ki
  Ki: 16 nM
D(3) dopamine receptor; read-out: pKi (converted)
  Ki: 16.2 nM

## OC1(c2ccc(Cl)cc2)CC2CCC(C1)N2CCCCc1nc2ccccc2s1 (stereo not drawn)
D(3) dopamine receptor; read-out: Ki
  Ki: 13 nM
D(2) dopamine receptor; read-out: Ki
  Ki: 44 nM
D(2) dopamine receptor; read-out: pKi (converted)
  Ki: 44.7 nM
